Values joined by “and” are separate entries in the source; they are usually repeats but may differ in a detail not shown here. Identical values can stand only once. Only a part is listed here, and it is no random draw.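 For each line, cells grew in 96-well plates with the test compound present at a single concentration for 48 hours.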 Active and inactive are the calls of the source. How the source made its calls: active means growth percent below 10; inactive means the rest.

This assay has as its system MDA-MB-468 breast. Description: NCI-60 one-dose screen, 48 h (100 = growth as untreated, 0 = no growth, -100 = all killed). The note with it: 10 µM unless noted.
In the case of `Cc1c([N+](=O)[O-])cc(C(=O)c2cc([N+](=O)[O-])cc([N+](=O)[O-])c2)cc1[N+](=O)[O-]`, the growth was inactive: 101%. For `O=[N+]([O-])c1ccc(-c2cc([N+](=O)[O-])c(O)c([N+](=O)[O-])c2)cc1`, the growth is inactive: 102% and inactive: 105%.

On to `Cc1ccc(S(=O)(=O)CN(CCCl)CCCl)cc1`, for which the growth was inactive: 103%. The result for `NC(=O)c1[nH]cnc1/N=N\N(CCCl)CCCl` reads inactive: 103%; that for `NCCc1ccc(N(CCCl)CCCl)cc1`, inactive: 10.1%.

Take `CCN(CCCl)/N=N/c1nc2nc[nH]c(=O)c2[nH]1`: the growth is inactive: 109%. The result for `CCCCOP(N)(=O)OCCCC` reads inactive: 99.5%; that for `ClCCN(CCc1ccccc1)Cc1ccccc1`, inactive: 94.8%. For the compound `Cc1ccc(S(=O)(=O)N(CCCN)CCCc2c(C)nc(N)[nH]c2=O)cc1`, the growth was inactive: 103%. The figure for `Cc1cc([N+](=O)[O-])cc([N+](=O)[O-])c1O` is inactive: 98.1%; for `Cc1ccccc1OP(=O)(Cl)Oc1ccccc1C` it is inactive: 97.4%; for `ClCCNCc1cccc(Cl)c1` it is inactive: 104%. The result for `O=C(c1ccc([N+](=O)[O-])cc1)N(CCCl)CCCl` reads inactive: 99.4%; that for `COP(=O)(OC)N1CC1c1ccccc1` (stereo not given), inactive: 104%. The result for `CN(C)C(=O)Oc1ccc(/C=N/NC(N)=S)nc1` reads inactive: 87.3%; that for `O=P(O)(O)F`, inactive: 108%; that for `CCCCCCCNP(=S)(Cl)Cl`, inactive: 109%. Consider `Clc1ccc(P(Cl)Cl)cc1`, for which the growth is inactive: 109%. In the case of `CC(Cc1ccccc1)N(CCCl)Cc1ccccc1` (stereo not given), the growth was inactive: 86.5%. The result for `Nc1ccc(N(CCCl)CCCl)cc1` reads inactive: 54.8%; that for `Nc1cccc2ccc([As](=O)(O)O)cc12`, inactive: 94%; that for `Nc1ccc([As](=O)(O)c2ccc([N+](=O)[O-])cc2)cc1`, inactive: 101%. As to `O=[As](O)(c1ccc(O)cc1)c1ccccc1O`, the growth is inactive: 92.9%. As for `Cc1ccc(C)c(C(=O)N(CCCl)CCCl)c1`, the growth is inactive: 99.2%. As for `CCOP(=O)(Nc1ccccc1Cl)OCC`, the growth is inactive: 91.8%. The result for `CN(C)P(=O)(Nc1ccccn1)N(C)C` reads inactive: 103%. Regarding `N#CC(C#N)=C(C#N)N(CCCl)CCCl`, the growth is inactive: 103%. `ClCCN1c2ccccc2Sc2ccccc21`: the growth was inactive: 110%. In the case of `O=C(c1ccc(F)cc1)N(CCCl)CCCl`, the growth is inactive: 98.8%. As for `O=P1(N(CCCl)CCCl)OCCCS1` (stereo not given), the growth was inactive: 104%. For the compound `Nc1ccc([As](=O)(O)c2ccc(N)cc2)cc1`, the growth is inactive: 116%. As to `CC(=O)NC(C)C(=O)N(CC(C)Cl)CC(C)Cl` (stereo not given), the growth is inactive: 98.3%. `COP(OC)c1ccc(C)cc1`: the growth was inactive: 121%.

Turning to `N/C(=N\N=C\c1ccc([N+](=O)[O-])o1)N[N+](=O)[O-]`, the growth was inactive: 98.5%.

Take `O=P(Cl)(N1CCCCCC1)N1CCCCCC1`: the growth was inactive: 97.1%.

Source of the values: PubChem BioAssay (NCI).
